Data: paper PMC8102310 (Cancer discovery, 2021)

Amino acid sequences for entries named in this document (tags omitted). Residues count along the entry.
UniProt Q92793, 1085-1192 limits assumed: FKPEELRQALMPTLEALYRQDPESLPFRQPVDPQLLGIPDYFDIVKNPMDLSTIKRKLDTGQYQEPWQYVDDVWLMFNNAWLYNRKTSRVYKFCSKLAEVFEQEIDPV
UniProt Q09472, 1049-1156 limits assumed: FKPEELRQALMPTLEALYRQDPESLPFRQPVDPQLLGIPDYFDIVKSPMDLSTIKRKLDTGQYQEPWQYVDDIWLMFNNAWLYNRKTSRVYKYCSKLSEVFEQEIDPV
UniProt Q09472, whole entry: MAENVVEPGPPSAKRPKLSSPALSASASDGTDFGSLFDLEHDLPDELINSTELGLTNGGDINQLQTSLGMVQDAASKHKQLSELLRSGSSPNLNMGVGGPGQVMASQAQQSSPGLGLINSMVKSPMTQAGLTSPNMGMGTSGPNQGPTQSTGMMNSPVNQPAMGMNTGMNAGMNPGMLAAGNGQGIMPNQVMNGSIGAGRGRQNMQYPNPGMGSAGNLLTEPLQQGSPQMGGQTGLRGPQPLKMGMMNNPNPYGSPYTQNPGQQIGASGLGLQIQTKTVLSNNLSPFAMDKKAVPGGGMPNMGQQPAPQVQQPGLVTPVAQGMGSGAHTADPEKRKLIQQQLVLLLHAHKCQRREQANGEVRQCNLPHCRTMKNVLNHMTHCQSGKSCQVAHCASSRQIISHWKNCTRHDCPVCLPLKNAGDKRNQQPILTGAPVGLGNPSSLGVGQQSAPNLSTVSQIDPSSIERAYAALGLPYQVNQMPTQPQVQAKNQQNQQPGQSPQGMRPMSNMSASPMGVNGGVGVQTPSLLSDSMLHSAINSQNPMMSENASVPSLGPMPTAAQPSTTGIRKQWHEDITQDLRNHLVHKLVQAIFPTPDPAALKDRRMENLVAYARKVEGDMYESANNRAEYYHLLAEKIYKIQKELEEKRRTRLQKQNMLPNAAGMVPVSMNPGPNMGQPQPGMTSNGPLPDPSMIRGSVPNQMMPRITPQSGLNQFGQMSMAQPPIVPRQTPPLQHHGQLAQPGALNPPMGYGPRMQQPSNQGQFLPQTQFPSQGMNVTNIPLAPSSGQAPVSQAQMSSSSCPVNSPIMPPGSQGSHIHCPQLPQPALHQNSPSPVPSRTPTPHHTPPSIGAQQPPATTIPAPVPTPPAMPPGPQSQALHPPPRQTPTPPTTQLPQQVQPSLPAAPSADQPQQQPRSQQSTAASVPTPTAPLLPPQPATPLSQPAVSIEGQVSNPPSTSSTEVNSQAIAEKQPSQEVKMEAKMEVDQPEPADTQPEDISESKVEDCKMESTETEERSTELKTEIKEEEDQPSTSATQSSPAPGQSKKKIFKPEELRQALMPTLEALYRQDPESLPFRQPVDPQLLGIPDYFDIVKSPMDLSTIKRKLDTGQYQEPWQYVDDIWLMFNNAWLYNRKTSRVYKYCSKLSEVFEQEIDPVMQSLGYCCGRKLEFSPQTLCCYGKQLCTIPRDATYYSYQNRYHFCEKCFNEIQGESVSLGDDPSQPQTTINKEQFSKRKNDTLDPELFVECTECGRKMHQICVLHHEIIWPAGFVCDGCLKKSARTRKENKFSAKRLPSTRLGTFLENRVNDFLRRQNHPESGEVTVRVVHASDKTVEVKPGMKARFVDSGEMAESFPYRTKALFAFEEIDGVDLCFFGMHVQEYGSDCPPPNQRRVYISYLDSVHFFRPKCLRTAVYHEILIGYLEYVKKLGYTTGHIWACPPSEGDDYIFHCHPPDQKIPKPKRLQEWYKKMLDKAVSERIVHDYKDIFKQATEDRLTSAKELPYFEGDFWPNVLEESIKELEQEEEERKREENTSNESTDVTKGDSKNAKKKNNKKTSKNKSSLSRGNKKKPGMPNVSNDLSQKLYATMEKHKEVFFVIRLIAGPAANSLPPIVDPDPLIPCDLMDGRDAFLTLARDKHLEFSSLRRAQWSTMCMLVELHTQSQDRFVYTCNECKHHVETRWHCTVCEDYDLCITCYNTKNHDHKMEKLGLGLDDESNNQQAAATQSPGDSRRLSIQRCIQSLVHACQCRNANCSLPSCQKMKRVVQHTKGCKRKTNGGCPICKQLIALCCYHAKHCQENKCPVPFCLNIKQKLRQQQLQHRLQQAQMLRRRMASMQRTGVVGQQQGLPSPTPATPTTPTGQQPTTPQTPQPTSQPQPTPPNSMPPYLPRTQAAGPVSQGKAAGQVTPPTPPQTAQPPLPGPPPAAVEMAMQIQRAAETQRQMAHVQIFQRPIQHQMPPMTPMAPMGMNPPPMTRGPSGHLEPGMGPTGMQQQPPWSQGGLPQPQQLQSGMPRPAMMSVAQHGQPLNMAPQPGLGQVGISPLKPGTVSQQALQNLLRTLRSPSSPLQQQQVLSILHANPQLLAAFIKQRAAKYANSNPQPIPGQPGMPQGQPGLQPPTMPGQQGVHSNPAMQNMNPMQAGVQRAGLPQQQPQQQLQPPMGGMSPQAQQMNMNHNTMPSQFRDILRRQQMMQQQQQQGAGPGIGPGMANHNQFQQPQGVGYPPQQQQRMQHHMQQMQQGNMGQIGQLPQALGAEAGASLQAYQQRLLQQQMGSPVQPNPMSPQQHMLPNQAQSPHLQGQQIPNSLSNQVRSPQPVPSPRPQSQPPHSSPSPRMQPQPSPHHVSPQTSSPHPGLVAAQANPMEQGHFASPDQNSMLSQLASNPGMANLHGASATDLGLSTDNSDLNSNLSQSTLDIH

Key:
CBP bromodomain = CBP bromodomain (Homo sapiens, UniProt Q92793); details: SPR Kd ratio
p300 bromodomain [1] = target: T1, p300 bromodomain (Homo sapiens, UniProt Q09472); details: SPR Kd ratio
p300 bromodomain [2] = target: T1, p300 bromodomain; assay: cell-based

Question: Which “selectivity for CBP compared with BRD4” value (CBP bromodomain) does the source give for `CO[C@H]1CC[C@H](n2c([C@@H]3CCCC(=O)N3c3ccc(F)c(F)c3)nc3cc(-c4c(C)noc4C)ccc32)CC1` [CCS1477] here?
Answer: Its value is 130 fold.

Question: What about the “selectivity for p300 compared with BRD4” value (p300 bromodomain [1]) of the same compound?
Answer: The value was 170 fold.

Question: And the IC50 (p300 bromodomain [2])?
Answer: The IC50 was 19 nM.
